Assay results taken from US20110059076A1, “HUMAN SERUM ALBUMIN LINKERS AND CONJUGATES THEREOF” (priority 2008, published 2011).

Legend:
[1] = test system: control BT-474-M3 breast cancer cell xenografts; assay: BT-474-M3 shControl xenografts; format: in vivo, nude mice; conditions: 30 mg/kg B2B3-1 every 3 days or 10 mg/kg trastuzumab every week, i.p.
Protocol: (§1) ShRNA technology is applied to knock out the activity of the tumor suppressor gene phosphatase and tensin homolog (PTEN) in BT-474-M3 breast cancer cells. Briefly, cultured BT-474-M3 cells are transfected with shPTEN or shControl RNA by retroviral transfection. Transfected cells with reduced PTEN are selected using FACS and subsequently injected subcutaneously into the right flank of nude mice to establish xenograft tumors. Cells transfected with a control vector are injected into the left flank of the same mouse. […] HSA is injected as a control at an equimolar dose to B2B3-1. All injections are done i.p.

BT-474-M3 xenograft = assay: combination with trastuzumab in BT-474-M3 xenograft model; format: in vivo, athymic nude mice (nu/nu); conditions: single agent, trastuzumab 1 mg/kg q7d
Protocol: Mice receive a subcutaneous estrogen-releasing implant in the opposite flank (0.72 mg pellet, 60 day, slow-release, Innovative Research of America, Sarasota, Fla.) 24 h prior to the injection of 20×10^6 human BT-474-M3cells in PBS. Dosing is initiated when tumor growth is established (tumor volumes of approximately 400 mm^3). Tumors are measured twice a week using digital calipers. Tumor volume is calculated using the formula: π/6×(W^2×L), where W is the short diameter and L is the long diameter.

[2] = test system: BT-474-M3 shPTEN xenografts; assay: BT-474-M3 shPTEN xenografts (reduced PTEN activity); format: in vivo, nude mice; conditions: 30 mg/kg B2B3-1 every 3 days or 10 mg/kg trastuzumab every week, i.p.
Protocol: as §1

[3] = test system: pErbB3 and pAKT in BT-474-M3 cells; assay: Western blot of heregulin induced ErbB3 activity in BT-474-M3 cells; format: cell-based; conditions: BT-474-M3, 24 hours, 10 nM or 100 nM, with or without 5 nM HRG 1β EGF
Text: Lysates are subjected to immunoblot analysis for ErbB3, pErbB3, AKT, and pAKT.

[4] = test system: pAKT in BT-474-M3 xenografts that have reduced PTEN activity; assay: pAKT Western blot of PTEN deficient BT-474-M3 xenograft tumors; format: in vivo; conditions: 30 mg/kg B2B3-1 every 3 days or 10 mg/kg trastuzumab weekly
Text: Equal quantities of protein are loaded in each lane and total protein levels are controlled by probing for PCNA.

In the case of trastuzumab [reference compound], the “size of tumors formed by control BT-474-M3 cells” value [1] is reported as “promoted a reduction”, the “mice with completely regressed tumors” value (BT-474-M3 xenograft) is reported as 0 out of 10 and the “size of tumors formed by BT-474-M3 cells lacking expression of PTEN” value [2] is reported as “not”. The “inhibition of pAKT” value [3] was “only seen in the absence of ligand”, the “inhibition of pErbB3” value [3] was “only seen in the absence of ligand” and the “pAKT in tumors (densitometry of Western blot)” value [4] was “did not”.
